Assay results published in patent US5912270A, “Anti-inflammatory compounds” (SmithKline Beecham Corporation, priority 1996, dated 1999).

Tested on: CoA-IT
Experiment: Assay (b): microsomal CoA-IT activity assay
Type: biochemical, human
Details: at concentrations up to 500 μM; U937 microsomes
From the text: The following is a method to measure CoA-IT activity and the effects of compounds on CoA-IT activity. The assay is based upon mixing cellular material containing CoA-IT activity with a stable lyso phospholipid such as […] and measuring the production of phospholipid product such as […] occurring in the absence of added CoA or CoA-fatty acids.
Any inflammatory cell that contains high levels of CoA-IT activity can be used, such as neutrophils, macrophages or cell lines such as U937 cells. […] Cells were grown without differentiation (basal state) by any agent, such as dimethyl sulfoxide. As used herein, "inflammatory cells" include, but are not limited to neutrophils, macrophages, monocytes, lymphocytes, eosinophils, basophils, and mast cells.
Microsomes were prepared using standard techniques. In this case, cells were washed with a buffer of 250 mM sucrose, 10 mM Tris, 1 mM EGTA, 1 mM MgCl2, pH 7.4 and ruptured by N2 cavitation (750 psi, 10 minutes). The ruptured cells were centrifuged 1000×g, 5 minutes. The resulting supernatant was centrifuged at 20,000×g,~20 minutes. Microsomes were prepared from this supernatant by centrifugation at 100,000×g, 60 minutes. […]
CoA-IT activity was measured in 1.5 ml centrifuge tubes in a total volume of 100 ul. […] 1-alkyl-2-acyl-GPC, was scraped and quantified by liquid scintillation spectroscopy. […]

Question: For `O=C(O)Cc1ccccc1Nc1c(Cl)cccc1Cl` [Sodium diclofenac], which “effect on CoA-IT activity” value is on record?
Answer: no effect
